{
  "sequences": {"note": "By UniProt entry, the sequences of proteins in these tests, tags left out. Residues count along the entry.", "UniProt Q99835, 28-787 D473H": "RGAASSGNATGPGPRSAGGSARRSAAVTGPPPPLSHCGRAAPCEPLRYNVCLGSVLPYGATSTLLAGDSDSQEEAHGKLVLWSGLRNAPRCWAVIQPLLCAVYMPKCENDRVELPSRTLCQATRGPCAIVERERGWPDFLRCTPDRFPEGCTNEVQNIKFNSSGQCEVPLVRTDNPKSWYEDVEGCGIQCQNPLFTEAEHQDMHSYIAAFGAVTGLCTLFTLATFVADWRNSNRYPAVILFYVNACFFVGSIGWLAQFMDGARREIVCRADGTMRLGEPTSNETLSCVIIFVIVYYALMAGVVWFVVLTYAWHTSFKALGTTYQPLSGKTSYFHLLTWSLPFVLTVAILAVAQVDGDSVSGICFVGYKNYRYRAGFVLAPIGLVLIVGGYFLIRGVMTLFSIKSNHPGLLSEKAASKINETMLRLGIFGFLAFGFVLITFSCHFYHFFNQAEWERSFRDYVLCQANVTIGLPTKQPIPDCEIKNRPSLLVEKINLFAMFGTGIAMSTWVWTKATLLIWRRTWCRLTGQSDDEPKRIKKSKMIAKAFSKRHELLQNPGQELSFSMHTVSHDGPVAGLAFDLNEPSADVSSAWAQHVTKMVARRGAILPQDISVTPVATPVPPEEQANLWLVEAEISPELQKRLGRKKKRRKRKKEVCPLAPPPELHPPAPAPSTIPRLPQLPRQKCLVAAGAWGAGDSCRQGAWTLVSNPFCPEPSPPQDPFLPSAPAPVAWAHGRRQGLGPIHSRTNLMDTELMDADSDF"},
  "source": "patent US9910050B2",
  "about": "“Mutant smoothened and methods of using the same” (Curis, Inc., priority 2009, dated 2018)",
  "molecular_target": "T1, SMO-D473H (Homo sapiens, UniProt Q99835, D473H)",
  "T1 construct": "expressed in transfected cells; host or cells: C3H10T½ cells (reporter assay)",
  "assay": "Gli-luciferase reporter assay in C3H10T½ cells transfected with SMO-D473H",
  "type": "cell-based",
  "protocol": "For the PTCH1 inhibition experiments, cells were transfected with an additional 200 ng of DNA containing varying ratios of PTCH1 to eGFP expression constructs. For the NF-κB and SV40 reporter assays, Gli-BS was replaced with either pGL4.32 or pGL3-Promoter. Six hours later, cells were collected by trypsin treatment and each well was redistributed over four wells of a 12-well plate. The FBS content of the culture medium was reduced to 0.5% the following morning to induce formation of primary cilia, and small molecule Hh inhibitors were added at indicated concentrations. […] Values were divided by Renilla luciferase activities to normalize for transfection efficiency and are shown as the mean of three separate experiments±1 standard deviation.",
  "data": [
    {"substance": "KAAD-cyclopamine", "values": [
      {"measurement": "change in IC50, SMO-D473H versus SMO-WT", "setting": "GLI-luciferase reporter activity", "result": 43, "unit": "fold"},
      {"measurement": "activity against SMO-D473H, inhibition of Gli-luciferase activity", "setting": "screen at 1 μM compound", "result": "fully inhibits Smo-D473H"}
    ]}
  ]
}
